The record followed here is patent publication US4396607A, “Muramyl peptide derivatives and pharmaceutical compositions” (priority 1978, dated 1983).

For this series, the system named is Limulus amoebocyte lysate. The series is described as follows: Limulus test (endotoxic type activity). The settings on record: gel formation after 20 minutes at 37° C. The protocol:
For this purpose, 0.1 ml of the Limulus amoebocyte lysate preparation (marketed by the MALLINCKRODT Company, at St. LOUIS, U.S.A.) was mixed with an equal volume of the tested product at various concentrations in solution in apyrogenic distilled water. The vessels used were also made apyrogenic by dry heating in the oven, at 180° C., for 2 hours.
After incubating the mixture for 20 minutes at 37° C. in tubes, the formation of gel characteristics of the presence of endotoxin was estimated.

In the case of “N-acetyl-muramyl-L-alanyl-D-isoglutaminyl-L-alanylglyceryl-mycolate [MDP--L--Ala--glyceryl--mycolate]”, the “Limulus test result (concentration of the tested product)” value is 100 µg/mL.
